Laboratory results reported in patent publication US10167279B2 (NOVARTIS AG, priority 2014, dated 2019).

Molecular target: C-Raf FL (Homo sapiens (Human), UniProt P04049, Y340E/Y341E)
Assay: In vitro Raf activity determination (Alpha Screen, phospho-MEK), C-Raf FL (full length, Y340E/Y341E)
Assay type: biochemical
Conditions: ATP 1 μM; 60 min pre-incubation; 1 hour reaction; column head does not say FL or TR
Source text: The activity of a compound according to the present invention can be assessed by well-known in vitro & in vivo methods. Raf inhibition data provided herein was obtained using the following procedures.
Sf9 cells co-expressing both proteins were lysed and subjected to immobilized nickel chromatography and eluted with Imidazole. A second column (StrepII binding column) was used and eluted with desthiobiotin. Protein Tags were removed using Prescission enzyme and the protein was further purified using a flowthrough step to remove tags.
C-Raf TR refers to a truncated C-Raf protein, a Δ1-324 deletion mutant. C-Raf FL refers to the full-length C-Raf protein.
Full length MEK1 with an inactivating K97R ATP binding site mutation is utilized as a RAF substrate. The MEK1 cDNA was subcloned with an N-terminal (his)6 tag into a vector for E. Coli expression. […]
Assay protocol: Raf and biotinylated Mek (kinase dead) were combined at 2× final concentrations in assay buffer (50 mM Tris, pH 7.5, 15 mM MgCl2, 0.01% BSA and 1 mM DTT) and dispensed […] per well in assay plates (Greiner white 384 well assay plates #781207) containing […] of 40× of a Raf kinase inhibitor test compound diluted in 100% DMSO. […] A lid was placed on top of the plate and incubated for 1 hour at room temperature, after which the luminescence was read on a PerkinElmer Envision instrument. […]

| Substance | IC50 [nM] |
| --- | --- |
| 2-(2-cyanopropan-2-yl)- N-(3-(2-(2- hydroxyethoxy)-6-(4- (hydroxymethyl) tetrahydro-2H-pyran-4- yl)pyridin-4-yl)-4- methylphenyl) isonicotinamide [Example 218] | 0.8 |
| 2-(1,1-difluoroethyl)-N- (3-(2-(hydroxymethyl)- 2-methyl-3-oxo-8- (tetrahydro-2H-pyran-4- yl)-3,4-dihydro-2H-benzo [b][1,4]oxazin-6-yl)-4- methylphenyl) isonicotinamide [Example 203] | 0.2 |
